Measurements published in PMC3581075 (Journal of pharmaceutical sciences, 2011).

Key:
rat hepatocytes = conditions: 2 min, 10% serum, rifampin 10 μM
human hepatocytes = conditions: eprosartan 10 μM, cryopreserved human hepatocytes, 10% serum; rifampin 10 μM

## CO[C@H]1/C=C/O[C@@]2(C)Oc3c(C)c(O)c4c(O)c(c(/C=N/N5CCN(C)CC5)c(O)c4c3C2=O)NC(=O)/C(C)=C\C=C\[C@H](C)[C@H](O)[C@@H](C)[C@@H](O)[C@@H](C)[C@H](OC(C)=O)[C@@H]1C [rifampin]
Rat hepatocytes; losartan 10 μM, sulfaphenazole 1 μM
  Decrease of uptake of losartan in rat hepatocytes compared to normal serum: 66%
Rat hepatocytes; propranolol 10 μM, quinidine 30 μM
  Change of uptake of propranolol in rat hepatocytes compared to normal serum: no significant differences
Human hepatocytes
  Change of uptake of eprosartan in human hepatocytes compared to normal serum: no significant changes
